High-throughput results as filed in PubChem.
ERp5 inh: blocks human ERp5 reductase activity on insulin | Q15084 | ERp5 insulin aggregation, absorbance 650 nm, 90 min | inhibition, % at 9.99 µM | 350,000 compounds, 0.05% hits | AID 651711;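 active = mean replicate inhibition above about 25%, with every replicate also reaching it, limit read from the data, passing the limit was not always enough; inconclusive = only one of those two criteria met; inactive = neither criterion met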
PDI inh: PDI (human) enzyme inhibition. 350,000 compounds, 0.052% hits. inhibition, % at 10 µM. PDI insulin aggregation turbidity, A650, 90 min;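 active = mean inhibition across replicates of 30% or more, whatever share of single replicates reach that level; inconclusive = mean inhibition below 30% while every single replicate reaches 30%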
NR1D1 modulator: Rev-erb alpha (human) modulation | AID 1259318 | 370,000 compounds, 0.79% hits | activity, % at 10 µM | P20393 | Rev-erbα–FITC-DNA binding, fluorescence polarization, 90 min;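 active = activity above about 14%, limit read from the data; passing the limit was not always enough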;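 also: 0% = DMSO wells with 35 nM protein and 100% = DMSO wells with 750 nM protein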
UUG fidelity: alters start codon recognition fidelity in yeast | S. cerevisiae UUG-firefly luciferase reporter, luminescence/redox ratio | activity score, % at 18.7 µM | hit rate 0.13% among 350,000 | AID 602363;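 active means replicate mean at a twofold rise or more, about +100% in these data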;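 further: firefly luciferase made from a UUG start codon reports start codon fidelity; reporter light over untreated wells divided by growth signal over untreated wells; some hits fall short of that in this replicate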
GSIS activator: GLuc luminescence reporter in INS-1E cells, primary screen for activators of glucose-dependent secretion of insulin | INS-1E GLuc reporter insulin secretion, 2-3 h | activation, % at 16.6 µM | 370,000 compounds, 0.61% hits | AID 743287;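 active = lowest replicate activation of at least 40%, so every replicate reaches that level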;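 also: 0% = median of neutral control wells and 100% = median of IBMX positive control wells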
SMARCA2 act: activators of SMARCA2 function. MG213 cells, MMTV-luciferase reporter, dexamethasone, overnight. activation, % at 9.1 µM. 370,000 compounds, 1% hits. AID 652017; in the data active = activation above about 7.8%;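 also: 0% = vehicle wells and 100% = reference activator wells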
NR1D1 mod conf: Rev-erb alpha (human) modulation, hit confirmation | 3,000 compounds, 61% hits | AID 1259319 | Rev-erb alpha FITC-DNA binding, fluorescence polarization, 90 min | shares compounds with NR1D1 modulator | activation, % at 25 µM;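 active = activation at or above a set limit, or at least 3 SD above the negative control mean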;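 also: 0% = 35 nM protein with DMSO and 100% = 750 nM protein high control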
RORg DNA counter: RORgamma DNA-binding activity, dose-response counter-screen; purified RORgamma protein-FITC-DNA binding, fluorescence polarization; AID 1259320; 910 compounds, 8% hits; shares compounds with NR1D1 modulator; IC50, µM;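 active = Compounds whose fitted half-maximal concentration for disrupting protein-DNA binding is below 10 micromolar; the record names Rev-erb in its text, so the target is in doubt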
An asterisk follows results filed as active; i = inactive; ? = inconclusive; . = no result. Hits are enriched below; roughly 2.1% of the tested compounds scored in any of these assays.

SMILES | ERp5 inh | PDI inh | NR1D1 modulator | UUG fidelity | GSIS activator | SMARCA2 act | NR1D1 mod conf | others
Cc1nn2c(N)c(-c3ccccc3)cnc2c1-c1ccccc1 | 0 | -5 | 19* | -6 | 10 | 3 | 3
Cc1nn2c(N)c(C#N)cnc2c1-c1ccccc1 | . | -7 | 3 | -26 | 4 | 2 | .
Cc1nn2c3c(cnc2c1-c1ccccc1)C(=O)CC(c1ccccc1)C3 (stereo not drawn) | . | -2 | 39* | -8 | -25 | -1 | 19*
Cc1ccc(S(=O)(=O)Nc2ccc3c(c2)C(=O)N([C@H](C)CO)C[C@@H](C)[C@@H](CN(C)C(=O)CCCN(C)C)OCCCC[C@@H](C)O3)cc1 | -1 | . | . | 16 | -1 | . | .
C[C@@H]1CCCCO[C@H](CN(C)Cc2ccc(C(=O)O)cc2)[C@@H](C)CN([C@H](C)CO)C(=O)c2cc(NC(=O)Nc3ccc4c(c3)OCO4)ccc2O1 | 1 | . | . | 6 | 14 | . | .
CCOC(=O)c1cc2c(=O)c3ccccc3oc2nc1C | 0 | -7 | 53* | -16 | 19 | 7 | 44* | RORg DNA counter=>40
CCCC(=O)Nc1ccc2c(c1)C(=O)N(C)[C@H]1CC[C@H](CC(=O)Nc3ccc(F)cc3)O[C@@H]1CO2 | . | . | . | -3 | -8 | . | .
CC(C)(C)C(=O)Nc1cc(S(=O)(=O)N2CCCCC2)ccc1N1CCCCC1 | -47 | 4 | 39* | 12 | -28 | -2 | 38* | RORg DNA counter=>40
COc1ccc(S(=O)(=O)N2CCCCC2)cc1NC(=O)c1cncc(Br)c1 | 4 | -6 | 41* | -14 | -3 | 4 | 19*
CC(=O)N(C)C[C@H]1Oc2ncc(C3=CCCC3)cc2C(=O)N([C@H](C)CO)C[C@H]1C | -6 | . | . | 0 | 26 | . | .
C[C@H]1CN([C@@H](C)CO)C(=O)c2cc(NS(=O)(=O)c3ccc(Cl)cc3)ccc2O[C@H]1CN(C)S(=O)(=O)c1cccs1 | -1 | . | . | -9 | -7 | . | .
CCCC(=O)N(c1ccc(OCC)cc1)S(=O)(=O)c1ccc2c3c(cccc13)C(=O)N2C | 3 | 1 | 43* | -11 | -2 | -1 | 17
COCCNS(=O)(=O)c1ccc2c3c(cccc13)C(=O)N2C | -6 | 0 | -5 | . | 0 | -5 | .
Cc1ccc(S(=O)(=O)N2C[C@H](O)COC[C@H]3O[C@@H](CC(=O)N[C@@H]4CCN(Cc5ccccc5)C4)CC[C@@H]32)cc1 | 6 | . | . | 5 | 3 | . | .
N#Cc1c(-c2ccccc2)cc(-c2ccccc2)nc1SCc1nnc(-c2ccccc2)o1 | . | -6 | 50* | -10 | -2 | -2 | 24*
COc1ccc(-c2cc(-c3ccccc3)c(C#N)c(SCC(=O)O)n2)cc1 | -1 | 4 | 2 | -16 | -40 | 1 | .
CC(=O)Oc1ccc2oc(/C=C/N(C)C)c([N+](=O)[O-])c2c1 | . | -4 | 25* | . | . | 0 | 43* | RORg DNA counter=>40
CC(C)=Cc1oc2ccc([N+](=O)[O-])cc2c1N1CCOCC1 | -1 | 3 | -3 | 4 | -4 | 3 | .
C/C(=C/c1oc2ccc(O)cc2c1[N+](=O)[O-])N(C)C | . | 11 | 22* | -5 | . | -4 | 25*
C[C@H]1CN([C@@H](C)CO)C(=O)c2cccc(NS(=O)(=O)c3cccs3)c2O[C@@H]1CN(C)C(=O)NC1CCCCC1 | -5 | . | . | 38 | 5 | . | .

Quoted from the entries so far (five entries):
SMILES | ERp5 inh | PDI inh | NR1D1 modulator | UUG fidelity | GSIS activator | SMARCA2 act | NR1D1 mod conf | others
COc1ccc(-c2cc(-c3ccccc3)c(C#N)c(SCC(=O)O)n2)cc1 | -1 | 4 | 2 | -16 | -40 | 1 | .
CC(=O)Oc1ccc2oc(/C=C/N(C)C)c([N+](=O)[O-])c2c1 | . | -4 | 25* | . | . | 0 | 43* | RORg DNA counter=>40
CC(C)=Cc1oc2ccc([N+](=O)[O-])cc2c1N1CCOCC1 | -1 | 3 | -3 | 4 | -4 | 3 | .
C/C(=C/c1oc2ccc(O)cc2c1[N+](=O)[O-])N(C)C | . | 11 | 22* | -5 | . | -4 | 25*
C[C@H]1CN([C@@H](C)CO)C(=O)c2cccc(NS(=O)(=O)c3cccs3)c2O[C@@H]1CN(C)C(=O)NC1CCCCC1 | -5 | . | . | 38 | 5 | . | .

Further records follow.
SMILES | ERp5 inh | PDI inh | NR1D1 modulator | UUG fidelity | GSIS activator | SMARCA2 act | NR1D1 mod conf | others
N#Cc1ccc(-c2ccccc2)nc1SCC(=O)c1cccc(Cl)c1 | . | -5 | 38* | -22 | . | -3 | 18*
N#Cc1ccc(-c2cccnc2)nc1SCC(=O)c1ccccc1 | 3 | -6 | 23* | -11 | . | 3 | 30*
CCCC#Cc1cnc2c(c1)C(=O)N([C@H](C)CO)C[C@@H](C)[C@H](CN(C)C(=O)Nc1c(C)noc1C)O2 | -3 | . | . | 19 | 13 | . | .
O=S(=O)(NCCOc1ccccc1F)c1cccc(Br)c1 | -3 | -11 | 18* | . | -10 | 0 | 2
N#CC1=C(SCC(N)=O)NC2=C(C(=O)c3ccccc32)C1c1ccc(Cl)cc1 (stereo not drawn) | . | -2 | 33* | 0 | . | -2 | 54* | RORg DNA counter=>40
CN1C(=O)c2cc(NC(=O)C3CCCC3)ccc2OC[C@H]2O[C@H](CC(=O)NCC3CC3)CC[C@H]21 | 2 | . | . | 1 | 3 | . | .
O=c1oc2ccccc2n1CSc1nc2ccccc2s1 | . | 1 | 18* | -14 | . | 5 | 20*
CCN(CC)S(=O)(=O)c1ccc(F)cc1 | . | -2 | 37* | . | . | -2 | 6
CCN(CC)S(=O)(=O)c1ccc(NS(=O)(=O)c2ccc(F)cc2)cc1 | . | -8 | 1 | -6 | . | -2 | .
CC(C)NC(=O)N(C)C[C@@H]1Oc2ccc(NS(C)(=O)=O)cc2C(=O)N(C)C[C@H]1C | . | . | . | . | 2 | . | .
CCN1C(=O)/C(=C2/Sc3ccccc3N2CC)S/C1=N\c1ncn[nH]1 | 6 | -2 | 19* | -56 | . | 7 | -4
CCCCNc1c(-c2cccc(SC(C)CC)c2)nc2ccc(Cl)cn12 (stereo not drawn) | -3 | 2 | -3 | -34 | -12 | 2 | .
CCC(C)Sc1ccc(-c2nc3ccc(Cl)cn3c2NCc2ccccc2)cc1 (stereo not drawn) | 1 | -3 | 26* | -25 | -13 | 3 | 15
C[C@H]1CN([C@@H](C)CO)C(=O)c2cc(NC(=O)C3CCCCC3)ccc2O[C@@H]1CN(C)C(=O)Nc1ccc(F)cc1 | 0 | . | . | -1 | 28 | . | .
NC(=O)c1nsc(C(=O)N(CC(=O)NC2CCCCC2)c2ccc(Cl)cc2)c1N | 6 | -1 | 9 | 15 | 5 | 3 | .
CCCCOc1ccc(N(CC(=O)NC2CCCCC2)C(=O)c2snc(C(N)=O)c2N)cc1 | 5 | -3 | 64* | . | 7 | 1 | 41* | RORg DNA counter=i
COc1ccc(C2=NN(C(=O)CSc3ncccn3)C(c3ccc(OC)cc3)C2)cc1 (stereo not drawn) | ? | -1 | -3 | . | 14 | -2 | .
COc1ccc(C2=NN(C(=O)CSc3nc(=O)n4cc(C)ccc4n3)C(c3ccc(C)cc3)C2)cc1 (stereo not drawn) | 0 | 1 | 57* | -1 | -1 | -1 | 20*
COc1ccc(-c2cc(-c3ccc(Br)cc3)nc3ncnn23)cc1OC | . | -3 | 25* | -19 | . | 0 | 8
O=C(OCC(=O)N1CCCc2ccccc21)c1cc(Br)ccc1O | -8 | -5 | 36* | . | 12 | -2 | 26*
CCN(CC)S(=O)(=O)c1ccc(O)c(C(=O)OCC(=O)N2CCCc3ccccc32)c1 | 4 | -3 | 2 | 10 | -43 | 0 | .
O=C(OCC(=O)N1CCN(S(=O)(=O)c2ccc(Cl)cc2)CC1)c1cc(Br)ccc1O | 12 | -3 | 121* | -12 | -7 | -1 | 80* | RORg DNA counter=i
